# In patent US6699880B1 (priority 1999, dated 2004):
# Sequences of proteins named here, by UniProt entry; tags and fusion partners are left off.
# UniProt P08173, whole entry, looked up: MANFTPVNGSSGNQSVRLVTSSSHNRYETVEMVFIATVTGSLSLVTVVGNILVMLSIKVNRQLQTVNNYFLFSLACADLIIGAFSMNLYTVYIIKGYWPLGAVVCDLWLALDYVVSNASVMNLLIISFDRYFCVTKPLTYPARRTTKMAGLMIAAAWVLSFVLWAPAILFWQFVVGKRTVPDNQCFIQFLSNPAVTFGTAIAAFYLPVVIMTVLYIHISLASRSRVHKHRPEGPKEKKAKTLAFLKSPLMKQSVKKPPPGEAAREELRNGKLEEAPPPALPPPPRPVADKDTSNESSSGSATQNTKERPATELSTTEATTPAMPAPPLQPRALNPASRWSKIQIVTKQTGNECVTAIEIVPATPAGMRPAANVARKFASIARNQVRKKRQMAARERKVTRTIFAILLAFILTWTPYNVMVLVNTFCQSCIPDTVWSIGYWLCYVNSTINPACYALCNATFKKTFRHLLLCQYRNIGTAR
# Molecular target: human m4 receptor (Homo sapiens, UniProt P08173)
# Details: maximum intracellular fluorescence intensity at test compound 10 mm; carbachol (10 mm) = 100%; in the presence of ATP (10 nM); hm4/Gi/Luc/CHO cells, Fluo-3
row,Compound,Agonist Activity (%) (M4 Receptors-Stimulating Activity)
1,CCCn1c(=O)n(C2CCN(C3CCN(C(=O)OC)CC3)CC2)c2ccccc21,101
2,CCn1c(=O)n(C2CCN(C3CCN(C(=O)OC)CC3)CC2)c2ccccc21,94
3,COC(=O)N1CCC(N2CCC(n3c(=O)n(S(C)(=O)=O)c4ccccc43)CC2)CC1,95
4,COC(=O)N1CCC(N2CCC(n3c(=O)n(C(=O)OC)c4ccccc43)CC2)CC1,95
